This is an account of results in patent US20030054047A1 (priority 2001, published 2003).

Structures are written as SMILES. Some results are limits rather than exact numbers.

For the data set, the system named is MDCK cells. The note with it: dog.

For the compound `NC(=O)c1ncn([C@@H]2O[C@H](CO)[C@@H](O)[C@H]2O)n1` [Ribavirin, 1-β-D-ribafuranosyl-1,2,4-triazole-3-carboxamide], the “TC0 (maximum non-toxic / tolerable concentration)” value was over 1.0 mg/mL.
